Earlier results in patent publication US4910012A, “Products containing Tc-99-m-ωalkylphosphinico-1-hydroxyalkane-1,1-diphosphonates for bone scintigraphy and a process for the preparation of these products” (Hoechst Aktiengesellschaft, priority 1988, dated 1990).

Conditions: in vivo; cited from earlier work

Tc-99m-labelled stannous ethane-1-hydroxy-1,1-diphosphonate [Tc-99m-HEDP]
clearance from the plasma: significantly quicker clearance
